Values belong to the molecule of their own block, whether it stands above or below them.
Tests used:
[1] = test system: constitutively high plasma ACTH in Mrap1 KO mice; experiment: Mrap1 KO mice constitutively high ACTH model; type: in vivo, mouse; conditions: for plasma ACTH concentrations in Mrap1 KO mice: single dose 20 mg/kg
Procedure: 8-10 week old wildtype female C57BL/6 mice were obtained from Charles River Laboratories. Mrap1 KO mice were obtained from Queen Mary University of London, UK. SSR125543A, a small molecule CRHR1 antagonist, was obtained from Axon Medchem (Cat #Axon 1799). Mouse Corticosterone (55-Corms-E01) and adrenocorticotropic hormone (ACTH) ELISA kits (21-ACTHU-E01) were obtained from ALPCO, USA. All procedures were carried out in accordance with the Guide for the Care and Use of Laboratory Animals of the National Institutes of Health. Protocols were approved by Charles River Laboratories Institutional Animal Care and Use Committee (IACUC).
To generate Mrap1 KO mice, Mrap1−/− male mice were bred with Mrap1+/− female mice. Corticosterone hormone replacement was performed by administering 50 μg/ml in drinking water to breeder cages when female mice were pregnant and their pregnancies palpable (approximately embryonic day 10). Drinking water was changed weekly, and treatment was stopped at weaning. Mice were uniquely identified with ear tags at the time of tail clipping to match future genotype with each mouse. DNA was extracted from tail tissue and used to genotype mice.
[…] On day 2 or 3, 14 and 28, 200 μl of blood was collected in EDTA tubes from the submandibular vein of each mouse. Plasma was separated using a refrigerated centrifuge (4° C. at 500×g for 10 min) and snap-frozen in dry ice for subsequent ACTH ELISA measurement.

human UCN1 = molecular target: T1, human UCN1 (Homo sapiens, UniProt P55089); experiment: Human UCN1 ELISA binding; conditions: Table 10; hUCN1 CT-biotin
T1 sequence (P55089 83-122 limits assumed): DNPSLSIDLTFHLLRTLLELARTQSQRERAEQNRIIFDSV
Procedure: Streptavidin (Thermo, Cat: 21125) was diluted in PBS to a concentration of 2 μg/ml. 100 μl of diluted streptavidin was added per well to ELISA microplates, and the plates were incubated overnight at 4° C. Plates were blocked with ELISA blocking solution (containing 2% w/v BSA, 0.05% (v/v) Tween-20, pH 7.4 PBS buffer) at 37° C. for 1 hour, and then incubated with 0.5 μg/mL CRH (NT biotin), 0.5 μg/mL CRH (CT biotin), 1 μg/mL human UCN1 (NT biotin), or 1 μg/mL human UCN1 (CT biotin) for 1 hour at 37° C. Plates were then washed and incubated with diluted anti-CRH antibody (Ab) at 15 μg/ml (100 nM, 10 diluted, 8 points) for 1 hour at 37° C. Subsequently, plates were washed and incubated with HRP-conjugated goat anti-human IgG (H+L) antibody (Jackson, Cat: 109-035-088) at 37° C. for 1 hour. […] 100 μL of ELISA stopping solution (Solarbio, Cat #: C1058) was added to terminate the reaction, and the optical density at 450 nm (OD450 nm) was determined by an ELISA plate reader (Molecular Devices, Spectra max 384 plus).
Streptavidin (Thermo, Cat: 21125) was diluted in PBS with a concentration of 2 μg/mL. […] 100 μL of ELISA stopping solution (Solarbio, Cat #: C1058) was then added to terminate the reaction, and the OD450 nm was determined by an ELISA plate reader (Molecular Devices, Spectra max 384 plus).

human CRHR1 = experiment: CRH-induced luciferase reporter blocking assay, CHO-CRE-hCRHR1 cells; type: cell-based; conditions: 0.5 nM CRH
Procedure: To create CHO-CRE-hCRHR1, -hCRHR2, -mCRHR1, and -mCRHR2 reporter cell lines, pcDNA3.1-hCRHR1, -hCRHR2, -mCRHR1, and -mCRHR2 were introduced into CHO-CRE cells established above by electroporation as described above. Selection antibiotics hygromycin at 500 μg/ml and G418 at 1,000 μg/ml were employed. Individual established stable cell lines were characterized by both CRH and forskolin stimulation.
Activated GPCR proteins increase production of the intracellular cAMP.
Blocking CRHR1 by small molecules or neutralization of CRH peptide can reduce luciferase expression if the CRH-CRHR1 system works in CHO-CRE-hCRHR1 cells.
50 μl of 4× serially diluted antibodies was added (8 points, 1/4 diluted by growth medium) to plates containing CHO-CRE-hCRHR1 cells, and 50 μl of 4×CRH (4× is 2 nM, final is 0.5 nM) was added. Similarly, 4×CRH (4× is 0.4 nM, final is 0.1 nM) was added to CHO-CRE-hCRHR2 cells and CHO-CRE-mCRHR1 cells, and 4×CRH (4× is 20 nM, final is 5 nM) was added to CHO-CRE-mCRHR2 cells. Next, plates were incubated 4-6 hours at 37° C. in a CO2 incubator. 60 μl of culture medium was removed, to which was added 60 μl of Bio-Glo luciferase, followed by incubation for 10 min at RT. Plates were read in a luciferase plate reader (EnVision, PerkinElmer).

EC50 (human UCN1): 0.32 nM
B1: PR302341-28: Series 10 humanized, PTM-removed anti-CRH mAb (Table 9), scaled up for in vivo studies (antibody)
heavy: QVQLVQSGAEVKKPGASVKVSCKASGYTFTDYFMKWVRQAPGQGLEWMGVINPNQGDIFYNQKFKGRVTMTVDKSISTAYMELSRLRSDDTAVYYCARGTDRALFAYWGQGTLVTVSSASTKGPSVFPLAPSSKSTSGGTAALGCLVKDYFPEPVTVSWNSGALTSGVHTFPAVLQSSGLYSLSSVVTVPSSSLGTQTYICNVNHKPSNTKVDKKV[human IgG1 Fc not listed]
light: DVVMTQSPLSLPVTLGQPASISCRSGQSIVHSDGNTYLEWYQQRPGQSPRLLIYKVSNRFSGVPDRFSGSGSGTDFTLKISRVEAEDLGVYYCFQGSHIPWTFGGGTKVEIKRTVAAPSVFIFPPSDEQLKSGTASVVCLLNNFYPREAKVQWKVDNALQSGNSQESVTEQDSKDSTYSLSSTLTLSKADYEKHKVYACEVTHQGLSSPVTKSFNRGEC
plasma ACTH concentrations in Mrap1 KO mice [1]: markedly reduced

IC50 (human CRHR1): ~10 nM
B2: PR005660: ΔPTM variant of Series 1 mAb PR004290; HCDR2 54EG55, LCDR1 36QS37 (antibody)
heavy: EVQLVESGGVLVQPGGSLRLSCAASGFTFSSYWMTWVRQAPGKGLEWVANIKQEGSEKYYVDSVKGRFTISRDNAKNSLFLQMNSLRAEDTAVYYCARTLIFDYWGQGTLVTVSSASTKGPSVFPLAPSSKSTSGGTAALGCLVKDYFPEPVTVSWNSGALTSGVHTFPAVLQSSGLYSLSSVVTVPSSSLGTQTYICNVNHKPSNTKVDKKV[human IgG1 Fc not listed]
light: DIVMTQSPLSLPVTPGEPASISCRSSQSLLHSTGYQSLEWYLQKPGQSPQLLIYLGSNRASGVPDRFSGSGSGTDFTLKISRVEAEDVGIYYCMQTLQTPITFGQGTRLEIKRTVAAPSVFIFPPSDEQLKSGTASVVCLLNNFYPREAKVQWKVDNALQSGNSQESVTEQDSKDSTYSLSSTLTLSKADYEKHKVYACEVTHQGLSSPVTKSFNRGEC
ACTH in Mrap1 KO mice ([1]; 5 mg/kg, post-dosing days 2 and 16): significantly reduced
plasma ACTH concentrations in Mrap1 KO mice, dose dependence ([1]; 20 mg/kg and 5 mg/kg, day 2 and day 16): reduced plasma ACTH concentrations in Mrap1 KO mice, in a dose dependent manner
plasma ACTH concentrations in Mrap1 KO mice [1]: significantly reduced
